Results reported in US12269859B2, “Synthetic immune receptors and methods of use thereof” (Angeles Therapeutics, Inc., priority 2016, dated 2025).

By UniProt entry, the sequences of proteins in these tests, tags left out. Chains listed by the source or under a name are the forms on record and can include a tag or linker.
UniProt P15391, with tags, fused parts or gaps: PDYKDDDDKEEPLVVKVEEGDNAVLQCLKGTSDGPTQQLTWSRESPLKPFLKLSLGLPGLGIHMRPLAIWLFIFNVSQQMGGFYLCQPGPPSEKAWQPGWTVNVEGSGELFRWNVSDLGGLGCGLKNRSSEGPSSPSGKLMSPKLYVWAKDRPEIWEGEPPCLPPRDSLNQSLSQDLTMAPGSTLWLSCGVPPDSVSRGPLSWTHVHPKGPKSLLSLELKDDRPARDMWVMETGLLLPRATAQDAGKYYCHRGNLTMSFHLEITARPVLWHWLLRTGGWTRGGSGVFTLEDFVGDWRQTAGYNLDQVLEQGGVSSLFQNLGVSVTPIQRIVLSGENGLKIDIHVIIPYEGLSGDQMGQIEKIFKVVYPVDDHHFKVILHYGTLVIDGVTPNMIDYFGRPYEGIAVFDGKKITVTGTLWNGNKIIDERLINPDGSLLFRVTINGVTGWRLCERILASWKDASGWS

Legend:
[1] = tested on: target cell lines expressing the target antigen; experiment: GLuc based T cell cytotoxicity assay on target cell lines (summary Table 10A); conditions: for T-CELL Cytotoxicity Assay Positive cell line: target cell line RAJI; for T-CELL Cytotoxicity Assay Positive cell line: RAJI: Gluc cytotoxicity, 4-96 hour co-culture of RAJI with SIR-expressing T cells vs control T cells
human CD19 = target: T1, human CD19 (Homo sapiens, UniProt P15391); experiment: NLuc binding assay with CD19-GGSG-NLuc-AcV5 fusion protein; conditions: for NLuc values (binding of CD19-GGSG-NLuc-AcV5): Jurkat-NFAT-Luc cells stably transduced, selected in puromycin; for Mean NLuc value (binding of CD19-GGSG-NLuc-AcV5): human peripheral blood T cells expressing the constructs
T1 construct: The extracellular domains of human CD19 and human MPL, including their signal peptides, were fused in frame; made in house; host or cells: 293FT cells, transient transfection; conditioned medium used unpurified

Row | Substance | NLuc values (binding of CD19-GGSG-NLuc-AcV5) (human CD19) | Mean NLuc value (binding of CD19-GGSG-NLuc-AcV5) (human CD19) | T-CELL Cytotoxicity Assay Positive cell line: RAJI [1] | other results
1 | CD8SP-CD19Bu12-(vL-vH)-Myc-BBz-T2A-PAC [SEQ ID NO:4503, reference compound] |  |  |  | T-CELL Cytotoxicity Assay Positive cell line [1]: RAJI (2+)
2 | CD8SP-CD19Bu12-vL-V5-[TCRb-S57C-opt1]-F-P2A-SP-CD19Bu12-vH-Myc-[TCRa-T48C-opt1]-F-F2A-PAC [SEQ ID NO:1021] | 128996 | 39575 |  | 
3 | CD8SP-CD20-2F2-vL-[canine-TCRb-opt]-F-P2A-CD20-2F2-vH-[canine-TCRa-opt]-F-F2A-PAC [SEQ ID NO:1113] |  |  | RAJI (2+) | 
4 | CD8SP-FMC63(vL-vH)-Myc-BBz-T2A-PAC [SEQ ID NO:4501, reference compound] |  |  |  | binding to Flag-CD19-GGSG-NLuc-AcV5 (in words) (human CD19; 293FT cells transiently transfected with CAR): strong binding
5 | CD8SP-FMC63-vL-Myc-[hTCRa-T48C-opt1]-F-F2A-FMC63-VH-V5-[hTCRb-C57C-opt1]-F-P2A-PAC [SEQ ID NO:902] |  |  | RAJI (+), | 
6 | CD8SP-FMC63-vL-V5-[TCRb-S57C-opt1]-F-P2A-SP-FMC63-vH-Myc-[TCRa-T48C-opt1]-F-F2A-PAC [SEQ ID NO:900] | 37216 | 19178 | RAJI (2+) | increase in CD19-GGSG-NLuc binding (human CD19; Jurkat-NFAT-Luc cells): more than 10 fold
7 | CD8SP-FMC63-vL-V5-[hTCRb-S57C-opt]-F-P2A-SP-FMC63-vH-Myc-[hTCRa-T48C-opt]-F-F2A-PAC [SEQ ID NO:951] |  |  |  | T-CELL Cytotoxicity Assay Positive cell line [1]: RAJI (2+)
8 | CD8SP-FMC63-vL-V5-[hTCRb-WT]-F-P2A-SP-FMC63-vH-Myc-[hTCRa-WT]-F-F2A-PAC [SEQ ID NO:922] | 3606 | 1190 |  | 
9 | CD8SP-FMC63-vL-V5-[hTCRg-opt]-F-P2A-SP-FMC63-vH-Myc-[hTCRd-opt]-F-F2A-PAC [SEQ ID NO:949] | 2176 |  |  | 
10 | CD8SP-FMC63-vL-V5-[mTCRb-opt]-F-P2A-SP-FMC63-vH-Myc-[mTCRa-opt]-F-F2A-PAC [SEQ ID NO:953] | 12128 | 5359 |  | T-CELL Cytotoxicity Assay Positive cell line [1]: RAJI (+)
11 | IgHSP-FMC63-vH-[hTCRb-C57C-opt]-F-P2A-CD8SP-FMC63-VL-MYC-[hTCRa-T48C-opt]-F-F2A-Pac [SEQ ID NO:901] |  |  | RAJI (2+) | 
